From ChEMBL document CHEMBL4840326, “Discovery of an M-Substituted N-Cyclopropylmethyl-7α-phenyl-6,14-endoethanotetrahydronorthebaine as a Selective, Potent, and Orally Active κ-Opioid Receptor Agonist with an Improved Central Nervous System Safety Profile” (2021)
Calls of active or inactive are those of the source. No cut-off for these calls is given here.

The chains behind the UniProt entries cited, without tags or fusion partners. Where a name states a change or a piece, a line headed by the entry shows the natural chain unless it says otherwise.
UniProt P41145: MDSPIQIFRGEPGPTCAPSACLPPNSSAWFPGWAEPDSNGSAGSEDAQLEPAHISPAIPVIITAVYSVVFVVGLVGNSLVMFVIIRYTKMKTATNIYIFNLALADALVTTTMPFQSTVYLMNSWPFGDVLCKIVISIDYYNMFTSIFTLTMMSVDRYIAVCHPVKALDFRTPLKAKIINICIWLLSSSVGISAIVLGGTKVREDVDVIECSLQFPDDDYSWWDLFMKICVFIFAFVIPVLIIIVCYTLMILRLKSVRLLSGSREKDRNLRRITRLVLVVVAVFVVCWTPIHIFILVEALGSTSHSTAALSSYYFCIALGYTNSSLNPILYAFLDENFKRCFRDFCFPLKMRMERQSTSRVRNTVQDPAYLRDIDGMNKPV

What was measured:
[1] = Selectivity ratio of Ki for displacement of [3H]DAMGO from rat mu opioid receptor expressed in CHO cell membrane to Ki for displacement of [3H]U69,593 from human kappa opioid receptor expressed in CHO cell membrane
[2] = Selectivity ratio of Ki for displacement of [3H]DPDPE from rat delta opioid receptor expressed in CHO cell membrane to Ki for displacement of [3H]U69,593 from human kappa opioid receptor expressed in CHO cell membrane
Mus musculus [3] = test: Induction of conditioned place aversion in mouse at 0.1 to 3.4 mg/kg, ip treated for 3.5 hrs in the afternoon session of preconditioning phase by placing in preferred side for 30 mins followed by test phase after 24 hrs; conditions: dose 0.1-3.4 mg/kg, time 28.0 hrs
Mus musculus [4] = test: Induction of conditioned place aversion in mouse at 5 mg/kg, ip treated for 15 mins in the afternoon session of preconditioning phase by placing in preferred side for 30 mins followed by test phase after 24 hrs; conditions: time 24.75 hrs
[5] = target: Kappa-type opioid receptor (Homo sapiens) (UniProt P41145); test: Agonist activity at human kappa opioid receptor expressed in CHO cell membrane at 1 uM incubated for 1 hr by [35S]GTPgammaS binding based liquid scintillation counting method relative to control; conditions: filed as agonist

| SMILES | Ratio Ki [1] | Ratio Ki [2] | Activity (Mus musculus [3]) | Activity (Mus musculus [4]) | Emax [5] [%] |
| --- | --- | --- | --- | --- | --- |
| COc1ccc2c3c1O[C@H]1[C@@]4(OC)CC[C@@]5(C[C@@H]4c4cccc(NCc6ccc(OCC7CC7)cc6)c4)[C@@H](C2)N(CC2CC2)CC[C@]315 | 1.8 | > 50 | – | – | – |
| COc1ccc(CNc2cccc([C@H]3C[C@@]45CC[C@]3(OC)[C@@H]3Oc6c(OC)ccc7c6[C@@]34CCN(CC3CC3)[C@@H]5C7)c2)cc1 | – | – | inactive | – | – |
| COc1ccc2c3c1O[C@H]1[C@@]4(OC)CC[C@@]5(C[C@@H]4c4cccc(NCC(O)COc6cccc7[nH]c8ccccc8c67)c4)[C@@H](C2)N(CC2CC2)CC[C@]315 (some centres not stated) | 16 | 31.9 | – | – | – |
| CN(C(=O)Cc1ccc(Cl)c(Cl)c1)[C@H]1CCCC[C@@H]1N1CCCC1 | 229 | > 820 | – | Active | 234 |
| COc1ccc2c3c1O[C@H]1[C@@]4(OC)CC[C@@]5(C[C@@H]4c4cccc(NCc6ccc(OC(F)(F)F)cc6)c4)[C@@H](C2)N(CC2CC2)CC[C@]315 | 0.6 | – | – | – | – |
| COc1ccc2c3c1O[C@H]1[C@@]4(OC)CC[C@@]5(C[C@@H]4c4cccc(NCc6ccc(C(F)(F)F)cc6)c4)[C@@H](C2)N(CC2CC2)CC[C@]315 | 31 | > 98 | – | – | – |
